Settings: A516 after 15 min

## O=C1O[C@H]([C@@H](O)CO)C(O)=C1O [L-ascorbic acid]
  concentration required for scavenging 50% of DPPH (IC50): 5.803 µg/mL

— patent publication US8501241B1, “Treating cancer with a whole, leech saliva extract” (priority 2012, dated 2013)
